For the experiment, the target named is T1, Bromodomain and PHD finger-containing protein 3 (Homo sapiens, UniProt Q9ULD4).
T1 sequence (Q9ULD4 whole entry): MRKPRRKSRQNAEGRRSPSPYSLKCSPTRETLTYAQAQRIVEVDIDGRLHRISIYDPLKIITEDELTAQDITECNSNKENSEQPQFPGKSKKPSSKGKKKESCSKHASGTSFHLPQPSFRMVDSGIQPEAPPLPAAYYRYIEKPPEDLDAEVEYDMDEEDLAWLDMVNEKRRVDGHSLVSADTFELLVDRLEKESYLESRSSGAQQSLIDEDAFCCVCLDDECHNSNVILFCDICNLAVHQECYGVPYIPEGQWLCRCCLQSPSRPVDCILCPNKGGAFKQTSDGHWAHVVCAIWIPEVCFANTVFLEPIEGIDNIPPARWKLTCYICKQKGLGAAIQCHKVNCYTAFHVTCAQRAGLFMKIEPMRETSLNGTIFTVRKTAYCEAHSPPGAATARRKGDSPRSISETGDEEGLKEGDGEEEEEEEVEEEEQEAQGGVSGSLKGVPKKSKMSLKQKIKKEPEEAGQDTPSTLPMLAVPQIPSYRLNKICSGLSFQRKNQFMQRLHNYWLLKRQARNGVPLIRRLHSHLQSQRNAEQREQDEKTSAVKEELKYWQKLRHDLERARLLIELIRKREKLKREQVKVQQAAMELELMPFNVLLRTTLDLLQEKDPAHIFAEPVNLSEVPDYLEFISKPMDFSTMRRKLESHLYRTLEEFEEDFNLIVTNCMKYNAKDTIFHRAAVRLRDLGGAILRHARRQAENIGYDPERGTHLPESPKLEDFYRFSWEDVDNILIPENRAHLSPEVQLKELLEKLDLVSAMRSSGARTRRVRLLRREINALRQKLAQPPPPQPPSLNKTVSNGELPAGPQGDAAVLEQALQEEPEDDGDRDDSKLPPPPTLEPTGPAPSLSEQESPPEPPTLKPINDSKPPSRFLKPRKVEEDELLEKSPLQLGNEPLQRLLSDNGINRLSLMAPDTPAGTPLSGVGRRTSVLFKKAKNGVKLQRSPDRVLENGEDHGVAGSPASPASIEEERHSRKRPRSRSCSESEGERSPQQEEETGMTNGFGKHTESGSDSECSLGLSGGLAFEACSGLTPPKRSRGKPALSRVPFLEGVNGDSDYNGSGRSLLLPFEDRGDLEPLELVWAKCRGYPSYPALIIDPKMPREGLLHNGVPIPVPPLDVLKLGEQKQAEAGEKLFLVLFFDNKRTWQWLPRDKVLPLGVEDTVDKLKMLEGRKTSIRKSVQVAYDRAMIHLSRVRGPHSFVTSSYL
Kind of experiment: Binding affinity to BRPF3 (unknown origin) by isothermal titration calorimetry. In general terms: ITC needs no label: the signal is the heat of the interaction.

Broadly, the Kd is the concentration at which binding is half-saturated. Compound `COc1cc(C#N)ccc1S(=O)(=O)Nc1ccc2c(c1)cc(C)c(=O)n2C` showed a Kd of 408 nM. This lies in the sub-micromolar range.
